Measurements: patent publication US20230357310A1, “Saponin derivatives with improved therapeutic window” (priority 2019, published 2023)

What was measured:
human red blood cells = system: human red blood cells
Protocol: Red blood cells (RBCs) were isolated from a buffy coat using a Ficoll gradient. The obtained RBC pellet (˜4-5 ml) was washed 2× with 50 ml DPBS (without Ca^2+/Mg^2+, PAN-Biotech GmbH). Cells were pelleted by centrifugation for 10 min, 800×g at RT. RBC were counted and resuspended at 500.000.000 c/ml in DPBS (without Ca^2+/Mg^2+), based on total cell count.
Saponin dilutions were prepared in DPBS (with Ca^2+/Mg^2+, PAN-Biotech GmbH), at 1.11×final strength. For positive lysis control a 0.02% Triton-X100 solution was prepared in DPBS^+/+. Of all compound solutions 135 μl was dispensed/well in a 96 well V-bottom plate. To this 15 μl RBC suspension was added and mixed shortly (10 sec-600 rpm). The plate was incubated 30 min at RT, with gentle agitation. Afterwards the plate was spun for 10 min at 800×g to pellet the RBC and 100-120 μl supernatant was transferred to a standard 96 wp (96 well-plate).

HSP27 mRNA in A431 cells = test: HSP27 mRNA gene silencing analysis; assay type: cell-based; conditions: A431, conjugate alone or + 100 nM SO1861-Ald-EMCH
From the text: RNA from cells was isolated and analysed according to standard protocols (Biorad). qPCR primers that were used are indicated in Table A10.

With “trastuzumab-SO1861 (DAR4): antibody-SO1861 conjugate, trastuzumab, DAR4” the “initial hemolytic activity from (concentration onwards)” value (human red blood cells) was ≥ 60.000 nM.
With “cetuximab-HSP27BNA: cetuximab conjugated to the HSP27BNA (DAR1.5 or DAR4)” the IC50 (HSP27 mRNA in A431 cells) was > 100 nM.
